Target: T1, WT CB2 (Homo sapiens, UniProt P34972)
T1 construct: expressed in transfected cells; host or cells: HEK293
Assay: pGlo-Sensor-22F cAMP accumulation assay, WT CB2
Assay type: cell-based
Settings: pEC50/pIC50 values
From the text: Compounds were drawn using ChemDraw.

Sequences of proteins named here, by UniProt entry; tags and fusion partners are left off.
UniProt P34972, whole entry: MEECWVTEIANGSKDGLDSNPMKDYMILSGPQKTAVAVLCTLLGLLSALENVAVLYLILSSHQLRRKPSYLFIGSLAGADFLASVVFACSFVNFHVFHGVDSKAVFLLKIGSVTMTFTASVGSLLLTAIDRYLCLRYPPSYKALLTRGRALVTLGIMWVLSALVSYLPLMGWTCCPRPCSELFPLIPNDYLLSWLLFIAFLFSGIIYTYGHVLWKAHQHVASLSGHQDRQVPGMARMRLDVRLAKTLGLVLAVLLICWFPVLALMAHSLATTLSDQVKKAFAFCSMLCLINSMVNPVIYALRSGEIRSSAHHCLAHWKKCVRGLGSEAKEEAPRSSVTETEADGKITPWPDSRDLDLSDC

Compound C=C(C)[C@@H]1CCC(C)=C[C@H]1c1c(O)cc(CCCCC)cc1O [CBD, Cannabidiol] has an EC50 of 2.13 µM.

Source: article PMC11833715, “Identification of a Cannabinoid Receptor 2 Allosteric Site Using Computational Modeling and Pharmacological Analysis” (ACS Pharmacology & Translational Science, 2025)
